Data published in ChEMBL document CHEMBL3994625, “Crystal structures, binding interactions, and ADME evaluation of brain penetrant N-substituted indazole-5-carboxamides as subnanomolar, selective monoamine oxidase B and dual MAO-A/B inhibitors” (Eur J Med Chem, 2017).

Sequences of proteins named here, by UniProt entry; tags and fusion partners are left off.
UniProt P21397, whole entry: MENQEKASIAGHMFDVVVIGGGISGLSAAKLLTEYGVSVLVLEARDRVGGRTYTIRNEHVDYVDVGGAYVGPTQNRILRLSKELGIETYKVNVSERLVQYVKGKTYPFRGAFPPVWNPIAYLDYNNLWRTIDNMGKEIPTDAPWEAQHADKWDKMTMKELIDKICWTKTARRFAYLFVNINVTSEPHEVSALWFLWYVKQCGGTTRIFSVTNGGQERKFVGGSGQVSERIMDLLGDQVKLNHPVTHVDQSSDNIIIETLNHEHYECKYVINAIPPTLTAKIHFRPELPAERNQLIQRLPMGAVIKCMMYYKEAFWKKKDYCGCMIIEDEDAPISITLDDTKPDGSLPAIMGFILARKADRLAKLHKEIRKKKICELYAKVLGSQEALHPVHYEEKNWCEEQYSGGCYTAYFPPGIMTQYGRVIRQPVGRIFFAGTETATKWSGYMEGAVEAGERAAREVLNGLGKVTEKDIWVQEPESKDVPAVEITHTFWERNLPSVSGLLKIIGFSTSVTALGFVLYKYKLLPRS

Target: Amine oxidase [flavin-containing] A (Homo sapiens, UniProt P21397)
Experiment: biochemical

With `Cn1ncc2cc(C(=O)Nc3ccc(Cl)c(Cl)c3)ccc21` the IC50 was 0.389 nM.
